Consider 60 compounds from PubChem BioAssay AID624304 (Sanford-Burnham Center for Chemical Genomics, 2012).

Usually inhibition stands for the drop in the measured response relative to a control, in per cent.

The list shows a part of the results, in another mix than the full data. Active and inactive are the calls of the source.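 How the source made its calls: active means interference check ratio from 0.5 to 1.5 plus GFP to RFP signal ratio inhibition reaching or exceeding a fixed threshold (cut at about 30% in these data, passing the limit was not always enough); inactive means the rest.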

This assay can be described thus: gst-4 reporter inhibition in live C. elegans – whole organism, uHTS, GFP/RFP fluorescence ratio, strain VP596, SKN-1 inhibitor project, primary screen (AID 624304). As to conditions: C. elegans VP596 Pgst-4::GFP/RFP ratio, acrylamide-induced, 24 h; at 21.8 µM; stronger effect = higher value.
As for `CC(C)(C)n1nnnc1C(c1ccnc2ccccc12)N1CCC(n2c(=O)[nH]c3ccccc32)CC1` (stereo not given), the inhibition is inactive: 9.17%. `CCN1CCC(Nc2cccc(F)c2)CC1`: the inhibition is inactive: -5.51%. For `COc1ccc(C(c2nnnn2C2CCCCC2)N2CCC(n3c(=O)[nH]c4ccccc43)CC2)cc1` (stereo not given), the inhibition was inactive: -1.01%. As to `Cc1ccccc1NC1(C#N)CCN(Cc2ccccc2)CC1`, the inhibition was inactive: -0.0628%. As to `Cn1c(=O)[nH]cc(N(CCCl)CCCl)c1=O`, the inhibition was inactive: 24.5%.

Take `CN(C)c1ccc(C(=O)NCC2(N3CCCCC3)CCCCC2)cc1`: the inhibition is inactive: 8.54%.

As to `O=C(NCC1(N2CCCCC2)CCCCC1)c1ccco1`, the inhibition was inactive: 19.3%. `CCC(c1nnnn1C1CCCCC1)N1CCC(n2c(=O)[nH]c3ccccc32)CC1` (stereo not given): the inhibition is inactive: -7.96%. On to `CC(=O)N(c1ccccc1)C1CCNCC1`, for which the inhibition was inactive: 7.79%. Regarding `COc1cccc(C(c2nnnn2C2CCCCC2)N2CCC(n3c(=O)[nH]c4ccccc43)CC2)c1OC` (stereo not given), the inhibition was inactive: 4.28%.

As to `O=c1[nH]c2ccccc2n1C1CCN(C(c2ccnc3ccccc23)c2nnnn2C2CCCCC2)CC1` (stereo not given), the inhibition is inactive: 5.4%.

Regarding `COc1cc(OC)cc(C(=O)NCC2(N3CCCCC3)CCCCC2)c1`, the inhibition is inactive: 9.65%. On to `Fc1ccccc1NC1CCN(Cc2ccccc2)CC1`, for which the inhibition is inactive: 1.25%. With `Cc1ccc(C(=O)NCC2(N3CCCCC3)CCCCC2)o1`, the inhibition was inactive: -7.08%.

Turning to `Cc1ccc(NC2(C#N)CCN(Cc3ccccc3)CC2)cc1`, the inhibition was inactive: -3.95%.

Turning to `COc1cccc(C(=O)N(c2cc(C)cc(C)c2)C2CCN(C(=O)OC(C)(C)C)CC2)c1`, the inhibition is inactive: 0.51%.

Consider `COc1cc(OC)cc(C(=O)NCC2(N3CCOCC3)CCCCC2)c1`, for which the inhibition was inactive: -2.93%.

On to `COc1cccc(C(c2nnnn2C2CCCC2)N2CCC(n3c(=O)[nH]c4ccccc43)CC2)c1OC` (stereo not given), for which the inhibition was inactive: 7.83%. For `CCC(CO)(C(=O)OC1CN2CCC1CC2)c1ccccc1` (stereo not given), the inhibition was inactive: -9.75%. `CN1CCC(Nc2ccc(Cl)cc2)CC1`: the inhibition is inactive: -10.3%. With `CN1CCC(Nc2ccc(F)c(Cl)c2)CC1`, the inhibition was inactive: 21.3%. With `CCOc1ncccc1C(=O)NCC1(N2CCOCC2)CCCCC1` the figure was inactive: -5.16%; with `NN(c1ccccc1)C1CCN(CCc2ccccc2)CC1`, inactive: 15.1%.

For `O=C(O)C1(Nc2ccccc2)CCN(Cc2ccccc2)CC1`, the inhibition was inactive: 0.0659%.

With `CC(C)(C)OC(=O)N1CCC(Nc2ccccc2)CC1`, the inhibition was inactive: -0.312%. In the case of `CCCOc1ccc(C(=O)NCC2(N(C)C)CCCCC2)cc1`, the inhibition was inactive: 14%. In the case of `O=c1[nH]c2ccccc2n1C1CCN(C(c2cc3ccccc3o2)c2nnnn2C2CCCC2)CC1` (stereo not given), the inhibition is inactive: 8.68%. For `COc1cccc(C(c2nnnn2C(C)(C)C)N2CCC(n3c(=O)[nH]c4ccccc43)CC2)c1OC` (stereo not given), the inhibition is inactive: -1.89%. For the compound `CCOC(=O)N1CCC(Nc2ccc(C)cc2)CC1`, the inhibition was inactive: 2.76%. `N/C(=N\O)c1c(N)no[n+]1[O-]`: the inhibition is inactive: -32.5%. Take `O=c1[nH]c2ccccc2n1C1CCN(C(c2cccs2)c2nnnn2C2CCCC2)CC1` (stereo not given): the inhibition is inactive: 23.7%. On to `O=C(OC1CN2CCC1CC2)C1c2ccccc2C=Cc2ccccc21` (stereo not given), for which the inhibition was inactive: 13.5%. In the case of `CCCCn1nnnc1C(c1cccc(OC)c1OC)N1CCC(n2c(=O)[nH]c3ccccc32)CC1` (stereo not given), the inhibition was inactive: 5.9%. With `COc1cc(C(=O)NCC2(N3CCOCC3)CCCCC2)cc(OC)c1C`, the inhibition was inactive: 3.67%. Turning to `CCCCn1nnnc1C(c1ccccc1)N1CCC(n2c(=O)[nH]c3ccccc32)CC1` (stereo not given), the inhibition was inactive: 2.35%. With `O=C(NCC1(N2CCOCC2)CCCCC1)c1cc(Br)ccc1Cl` the figure was inactive: 4.93%; with `O=c1[nH]c2ccccc2n1C1CCN(C(c2cccs2)c2nnnn2C2CCCCC2)CC1` (stereo not given), inactive: 16.8%. Regarding `O=c1[nH]c2ccccc2n1C1CCN(C(c2ccnc3ccccc23)c2nnnn2C2CCCC2)CC1` (stereo not given), the inhibition is inactive: -1.69%.

Turning to `COc1ccc(C(=O)NCC2(N3CCOCC3)CCCCC2)cc1OC`, the inhibition was inactive: -6.5%. `CN(C)C1(CNC(=O)c2cccc(C#N)c2)CCCCC1`: the inhibition was inactive: -6.64%.

As for `Cc1cc(N(CCCl)CCCl)ccc1C=O`, the inhibition is inactive: 10.9%. Turning to `CCCN1CCC(Nc2cc(OC)cc(OC)c2)CC1`, the inhibition is inactive: 22.1%. Regarding `O=c1[nH]c2ccccc2n1C1CCN(C(c2ccccc2)c2nnnn2C2CCCC2)CC1` (stereo not given), the inhibition is inactive: 16.4%. In the case of `c1ccc(CN2CCC(Nc3ccccc3)CC2)cc1`, the inhibition is inactive: -16.2%. Regarding `CC(C)(C)n1nnnc1C(c1cccc2ccccc12)N1CCC(n2c(=O)[nH]c3ccccc32)CC1` (stereo not given), the inhibition was inactive: 13.1%. With `N#Cc1ccc(C(=O)NCC2(N3CCCCC3)CCCCC2)cc1`, the inhibition is inactive: 7.89%. The same measure for `CC(C)(C)OC(=O)N1CCC(N(C(=O)c2ccccc2)c2ccc(Cl)cc2)CC1`: inactive: 7.91%; for `O=C(NCC1(N2CCCCC2)CCCCC1)c1cccc(C(F)(F)F)c1`: inactive: 12.1%; for `O=C(NCC1(N2CCOCC2)CCCCC1)c1cc(=O)[nH]c2ccccc12`: inactive: 4.72%.

On to `COc1cc(C(=O)NCC2(N3CCCCC3)CCCCC2)ccc1OC(F)F`, for which the inhibition was inactive: 12.1%. On to `CCCCn1nnnc1C(c1cccc2ccccc12)N1CCC(n2c(=O)[nH]c3ccccc32)CC1` (stereo not given), for which the inhibition is inactive: 5.68%. For `CC(C)c1ccc(C(=O)NCC2(N3CCOCC3)CCCCC2)cc1`, the inhibition was inactive: 12.1%. `COc1ccc(NC2CCN(C(=O)OC(C)(C)C)CC2)cc1`: the inhibition is inactive: 5.53%.

In the case of `CN1CCN(CCOC(=O)C(O)(c2ccccc2)c2ccccc2)CC1`, the inhibition is inactive: 4.73%.

As to `O=C(NCC1(N2CCCCC2)CCCCC1)c1ccc(OC(F)F)cc1`, the inhibition was inactive: 6.81%.

With `CC(C)(C)n1nnnc1C(c1ccccc1OC(F)(F)F)N1CCC(n2c(=O)[nH]c3ccccc32)CC1` (stereo not given), the inhibition is inactive: 0.61%. As to `N#CC1(Nc2ccccc2)CCN(CCc2ccccc2)CC1`, the inhibition was inactive: 2.01%. With `O=c1[nH]c2ccccc2n1C1CCN(C(c2ccccc2OC(F)(F)F)c2nnnn2C2CCCC2)CC1` (stereo not given) the figure was inactive: 17.5%. With `CCN1CCC(Nc2ccc(Cl)cc2)CC1` the figure was inactive: 12%.

`O=C(NCC1(N2CCCCC2)CCCCC1)c1cccc([N+](=O)[O-])c1`: the inhibition is inactive: -2.08%.
